Data published in patent publication US8637557B2, “Aminothiazole derivative” (Taisho Pharmaceutical Co., Ltd, priority 2009, dated 2014).

Amino acid sequences for entries named in this document (tags omitted).
UniProt P48736, whole entry: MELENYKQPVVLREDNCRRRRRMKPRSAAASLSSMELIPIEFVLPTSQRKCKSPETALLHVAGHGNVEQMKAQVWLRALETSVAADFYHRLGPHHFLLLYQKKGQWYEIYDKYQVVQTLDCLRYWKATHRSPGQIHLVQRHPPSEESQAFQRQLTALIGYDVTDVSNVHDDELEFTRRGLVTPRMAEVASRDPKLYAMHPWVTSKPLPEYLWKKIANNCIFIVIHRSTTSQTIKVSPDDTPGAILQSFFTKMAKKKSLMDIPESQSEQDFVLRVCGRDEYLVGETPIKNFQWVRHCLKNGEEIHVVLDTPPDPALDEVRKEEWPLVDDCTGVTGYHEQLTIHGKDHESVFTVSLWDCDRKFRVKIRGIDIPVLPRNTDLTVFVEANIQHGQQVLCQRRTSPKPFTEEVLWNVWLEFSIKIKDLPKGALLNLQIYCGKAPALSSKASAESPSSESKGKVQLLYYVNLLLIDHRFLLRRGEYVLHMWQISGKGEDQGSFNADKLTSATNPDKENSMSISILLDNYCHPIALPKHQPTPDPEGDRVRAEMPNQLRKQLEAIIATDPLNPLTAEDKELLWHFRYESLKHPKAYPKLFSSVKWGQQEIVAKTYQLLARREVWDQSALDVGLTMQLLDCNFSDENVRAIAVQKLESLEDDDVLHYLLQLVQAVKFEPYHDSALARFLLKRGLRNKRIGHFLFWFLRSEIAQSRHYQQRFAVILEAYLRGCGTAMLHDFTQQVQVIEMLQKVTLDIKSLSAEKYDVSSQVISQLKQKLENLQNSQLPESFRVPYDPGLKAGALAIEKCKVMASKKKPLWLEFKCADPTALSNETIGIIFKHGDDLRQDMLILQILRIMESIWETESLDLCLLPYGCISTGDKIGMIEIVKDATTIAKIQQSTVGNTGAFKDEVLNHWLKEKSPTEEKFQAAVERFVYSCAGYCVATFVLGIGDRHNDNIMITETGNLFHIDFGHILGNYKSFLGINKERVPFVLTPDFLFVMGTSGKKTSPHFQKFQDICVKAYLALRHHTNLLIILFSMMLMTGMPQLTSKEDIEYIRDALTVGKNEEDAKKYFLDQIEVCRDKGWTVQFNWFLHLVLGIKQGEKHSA

biological target: human PI 3-kinase p120γ (Homo sapiens, UniProt P48736); test: PI 3-kinase p120γ enzyme activity inhibition test; settings: read-out: PI3Kγ (IC50 value class); ATP 10.0 μM, PIP2-PS 5.0 μM, 30° C., 2 hours

IC50	Compound
< 100 nM	Cc1nc(NC(=O)NCCC(=O)OC(C)(C)C)sc1-c1nc(CS(C)(=O)=O)no1
< 100 nM	Cc1nc(NC(=O)NCCC(=O)NC(CO)(CO)CO)sc1-c1nc(-c2cccnc2)no1
500 to 10000 nM	COCCOCc1noc(-c2sc(NC(C)=O)nc2C)n1
< 100 nM	CC(=O)Nc1nc(C)c(-c2nc(C[C@@H](C)CO)no2)s1
